The text below walks through data of ChEMBL document CHEMBL5512616, “pH regulators and their inhibitors in tumor microenvironment” (Eur J Med Chem, 2024).

Assay [1] deals with T1, Carbonic anhydrase 2 (Homo sapiens, UniProt P00918).
The target in assay [2] is T1, Carbonic anhydrase 2. This is another data set of the same source.
In assay [3] the target is T1, Carbonic anhydrase 2. This is another data set of the same source.
Assay [4] addresses T1, Carbonic anhydrase 2. Description: Inhibition of human CA II by phenol red based stopped-flow CO2 hydration assay.
A further assay deals with HCT-116. Description: cells. Particulars: Homo sapiens.
Another assay concerns the target Carbonic anhydrase 9 (Homo sapiens, UniProt Q16790).
The next assay has as its system MCF7. Description: cells. The settings on record: Homo sapiens.
For a further assay, the system named is HepG2. Description: cells. Particulars: Homo sapiens.
In the next assay the test system is A549. Description: cells. The settings on record: Homo sapiens.

The Ki is a measure of affinity in units of concentration, obtained from inhibition or displacement. The low end stands for a stronger hold on the target, the high end for a looser hold on the target. Turning to `Cc1cc(=O)oc2cc(OCc3cn(CCCCCCCCCCCCOc4ccc5ccc(=O)oc5c4)nn3)ccc12`, the Ki on Carbonic anhydrase 2 [1] was over 10 µM.

`C/C(=N\Nc1ccc(C#N)cc1)c1cc2ccccc2c(=O)o1` had a Ki on Carbonic anhydrase 2 [2] of over 100 µM.

The compound `COc1ccc(NC(=S)Nc2ccc3oc(=O)ccc3c2)cc1` gave a Ki at Carbonic anhydrase 2 [1] of over 50 µM.

In turn, `Nc1ccc2c(c1)NC(=O)CC2` came in with a Ki on Carbonic anhydrase 2 [3] of over 10 µM.

Take `CCc1c(OCC(=O)c2ccccc2)ccc2c(C)c(CC(=O)OC)c(=O)oc12`: the inhibition constant (Ki) at Carbonic anhydrase 2 [1] was over 10 µM.

`O=C(CNC(=O)Oc1ccccc1)Nc1ccc2oc(=O)ccc2c1` registered an inhibition constant Ki on Carbonic anhydrase 2 [4] of over 50 µM.

One may read the IC50 as the concentration needed to halve the response being measured. For `Cc1ccc(S(=O)(=O)Nc2ccsc2-c2nc(-c3ccccc3)no2)cc1`, in the assay on HCT-116, half-maximal inhibition (IC50) was put at 11.1 µM.

At Carbonic anhydrase 9, `Nc1ccc(S(=O)(=O)Nc2ccsc2-c2nc(-c3ccccc3)no2)cc1` returned a Ki of 10.8 µM.

For the compound `O=C(N/N=C/c1n[nH]c(-c2ccccc2)c1Cc1ccccc1)C12CC3CC(CC(C3)C1)C2`, the IC50 came out at 7.46 µM with MCF7, 5.11 µM with HepG2 and 3.75 µM with A549.
